Laboratory results reported in PubChem BioAssay AID803 (The Scripps Research Institute Molecular Screening Center, 2007).
This is a selection; strong and weak results do not stand in their true shares. The source made the active and inactive calls. Rule as the data show it: active = activation above about 5% (passing the limit was not always enough); inactive = the rest.

The chains behind the UniProt entries cited, without tags or fusion partners.
UniProt O43603, whole entry: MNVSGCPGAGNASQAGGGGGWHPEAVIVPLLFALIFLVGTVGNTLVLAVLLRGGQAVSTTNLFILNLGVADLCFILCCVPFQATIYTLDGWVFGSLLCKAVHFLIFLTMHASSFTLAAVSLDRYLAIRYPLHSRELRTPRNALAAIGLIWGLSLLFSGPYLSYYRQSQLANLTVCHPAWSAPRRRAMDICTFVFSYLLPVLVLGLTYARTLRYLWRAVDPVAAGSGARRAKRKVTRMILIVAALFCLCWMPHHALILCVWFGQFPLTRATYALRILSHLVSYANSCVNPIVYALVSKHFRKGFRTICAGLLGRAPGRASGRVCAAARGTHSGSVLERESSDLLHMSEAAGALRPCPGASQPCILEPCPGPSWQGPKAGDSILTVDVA

Each molecule was assayed against Galanin receptor type 2 (Homo sapiens) (UniProt O43603) (assay: human galanin receptor 2 activators – cell-based, primary screen (AID 803;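 also: 0% = vehicle buffer wells and 100% = reference agonist at full effect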)). Conditions: GALR2-expressing cells, agonist activation read-out; at 5.6 µM; hits give high values.

| SMILES | activation |
| --- | --- |
| Oc1ccccc1CNc1ccccn1 | inactive: -1.36% |
